Earlier results on one substance are cited in US20220144913A1, “PERSONALIZED AND TIMED RELEASE OF BIOMOLECULES” (The General Hospital Corporation, priority 2019, published 2022).

Read-outs that look alike come from different tables or passages of the source.

The conditions of the data set: cited from earlier work.

Usually half-life stands for the time in which the quantity being followed falls by half. For Gaussia princeps luciferase [GLUC], the half-life was 5 to 10 min (mouse circulation) and about 20 min (mouse plasma).
